Test results: patent US11098072B2, “Alkenyl and beta-substituted phosphonates as antimicrobial agents” (The George Washington University, priority 2017, dated 2021)

Tested on: P. berghei ANKA
Test: P. berghei-infected mouse model of malaria
Conditions: 20 and 50 mg/kg i.p. daily for five days

In the case of `CC(C)(C)C(=O)OCOP(=O)(/C=C/CN(O)C=O)OCOC(=O)C(C)(C)C` [Compound 18a, [({[(2,2-dimethylpropanoyl)oxy]methoxy}[(1E)-3-(N-hydroxyformamido)prop-1-en-1-yl]phosphoryl)oxy]methyl 2,2-dimethylpropanoate], the tolerability in mice is reported as “no adverse effects were observed”.
